Several values for one entry are separate records, joined by “and”; a condition that tells them apart may be missing. Equal values may be shown once.
What was measured:
Male SD/TAC rats = assay: Assay for diuretic activity (standard diuresis test, metabolic cages); assay type: in vivo, rat; settings: for PO Dose at which max diuresis is achieved / Lovest Dose at which increased diuresis is achieved nMol/kg. I.e. >1.5 PO / PO max effect.: p.o.; for PO Dose at which max diuresis is achieved / Lovest Dose at which increased diuresis is achieved nMol/kg. I.e. >1.5 PO / SC Dose at which max diuresis is achieved / Lovest Dose at which increased diuresis is achieved nMol/kg. I.e. >1.5 SC / Lovest Dose at which increased diuresis is achieved nMol/kg. I.e. >1.5 IV: rats; for Lovest Dose at which increased diuresis is achieved nMol/kg. I.e. >1.5 PO / Lovest Dose at which increased diuresis is achieved nMol/kg. I.e. >1.5 SC / Lovest Dose at which increased diuresis is achieved nMol/kg. I.e. >1.5 IV: ratio >1.5; for PO max effect. / SC max effect.: ratio of urine from treated rats to vehicle control group, 1 is normal diuresis, NI = No increase (not greater than 1.5), max test dose 3000 nMol/kg; for SC Dose at which max diuresis is achieved / Lovest Dose at which increased diuresis is achieved nMol/kg. I.e. >1.5 SC / SC max effect.: s.c.; for Lovest Dose at which increased diuresis is achieved nMol/kg. I.e. >1.5 IV: i.v.; for effect on diuresis (in words): discussion of the examples
cloned hORL1 receptors = cloned hORL1 receptors (Homo sapiens, UniProt P41146); assay: hORL1 receptor mediated inhibition of forskoline-induced cAMP formation in HEK293 cells
mice = assay: Locomotor activity test (CNS effect); assay type: in vivo, mouse; settings: i.v.
[1] = Oral bioavailability in Sprague-Dawley rats (i.v./p.o. bolus, plasma LC/MS/MS); settings: for F % (oral bioavailability) / T½ min (half-life): Sprague-Dawley rats; for F % (oral bioavailability): i.v. and p.o. bolus, cross-over, two rats, non-compartmental, Compound 40 and 11 values guidance only (corrected by factor 0.14); for T½ min (half-life): non-compartmental analysis; for oral availability (in words): discussion of the examples
male NMRI mice = assay: Gridshock test (pain threshold, CNS effect); settings: for observed effect after i.v. administration: nearly same effect as i.t. nociceptin

The chains behind the UniProt entries cited, without tags or fusion partners. Where a name states a change or a piece, a line headed by the entry shows the natural chain unless it says otherwise.
UniProt P41146: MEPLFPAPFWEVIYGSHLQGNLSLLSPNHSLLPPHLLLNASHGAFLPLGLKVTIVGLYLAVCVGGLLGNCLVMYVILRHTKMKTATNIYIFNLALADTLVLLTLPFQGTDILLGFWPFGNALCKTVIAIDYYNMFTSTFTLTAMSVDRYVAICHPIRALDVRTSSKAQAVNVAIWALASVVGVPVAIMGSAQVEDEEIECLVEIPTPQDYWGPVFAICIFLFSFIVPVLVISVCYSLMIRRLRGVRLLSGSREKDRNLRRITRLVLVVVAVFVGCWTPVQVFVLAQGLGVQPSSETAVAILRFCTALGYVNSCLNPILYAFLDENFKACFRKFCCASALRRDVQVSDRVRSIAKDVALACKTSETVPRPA

In the case of `CC(C)[C@H]1CC[C@@H](N2CCC3(CC2)C(=O)N(CCCN)CN3c2ccccc2)CC1` (relative stereo), the “PO Dose at which max diuresis is achieved” value (“PO Dose” below) (Male SD/TAC rats) was 1000 nmol/kg, the “Lovest Dose at which increased diuresis is achieved nMol/kg. I.e. >1.5 PO” value (Male SD/TAC rats) was 1000 nmol/kg and the PO max effect. (Male SD/TAC rats) was 1.9. The “SC Dose at which max diuresis is achieved” value (shortened to “SC Dose”) (Male SD/TAC rats) was 3000 nmol/kg, the “Lovest Dose at which increased diuresis is achieved nMol/kg. I.e. >1.5 SC” value (Male SD/TAC rats) was 1000 nmol/kg and the SC max effect. (Male SD/TAC rats) was 2.5. For the same compound, the “agonism in efficacy assay” value (cloned hORL1 receptors) was “full agonism”.

With `CC(C)[C@H]1CC[C@@H](N2CCC3(CC2)C(=O)N(CCCN(C)C)CN3c2ccccc2)CC1` (relative stereo) the “agonism in efficacy assay” value (cloned hORL1 receptors) was “full agonism”.

With `CC(C)C1CCC(N2CCC3(CC2)C(=O)NCN3c2ccccc2)CC1` (stereo not drawn) the “CNS motility* (Minimal effective dose nmol/kg)” value (shortened to “CNS motility*”) (mice) was 300 nmol/kg, the “dose with statistical significant decrease in locomotor activity from 15-30 minutes” value (mice; foreign cage) was 1000 nmol/kg and 2000 nmol/kg and the “dose with statistical significant increase in locomotor activity during the last 30 minutes” value (mice; foreign cage, p<0.05) was 1000 nmol/kg. For the same compound, the “F % (oral bioavailability)” value [1] was 4 ± 0.3%, the “T½ min (half-life)” value [1] was 36 min and the “Lovest Dose at which increased diuresis is achieved nMol/kg. I.e. >1.5 IV” value (Male SD/TAC rats) was 1000 nmol/kg. The “SC Dose” value (Male SD/TAC rats) was 3000 nmol/kg, the “Lovest Dose at which increased diuresis is achieved nMol/kg. I.e. >1.5 SC” value (Male SD/TAC rats) was 1000 nmol/kg and the SC max effect. (Male SD/TAC rats) was 3.3. For the same compound, the “CNS grid shock* (Minimal effective dose nmol/kg)” value (“CNS grid shock*” for short) (male NMRI mice; i.v.) was 300 nmol/kg and the “dose after which the mice were highly sedated (test worthless)” value (male NMRI mice; i.v.) was 3000 nmol/kg.

For “cis-3-(10-Aminoethyl-7,10,13-triazamidecan)-8-(4-isopropyl-cyclohexyl)-1-phenyl-1,3,8-triaza-spiro[4.5]decan-4-one”, the “oral availability (in words)” value [1] was “orally available”, the “effect on diuresis (in words)” value (Male SD/TAC rats) was “significantly increase diuresis” and the “agonism in efficacy assay” value (cloned hORL1 receptors) was “full agonism”.

In the case of `CNCCCCCCN1CN(c2ccccc2)C2(CCN([C@H]3CC[C@@H](C(C)C)CC3)CC2)C1=O` (relative stereo), the “SC Dose” value (Male SD/TAC rats) was 3000 nmol/kg, the “Lovest Dose at which increased diuresis is achieved nMol/kg. I.e. >1.5 SC” value (Male SD/TAC rats) was 3000 nmol/kg and the SC max effect. (Male SD/TAC rats) was 2.2. The “agonism in efficacy assay” value (cloned hORL1 receptors) was “full agonism”.

For `CC(C)[C@H]1CC[C@@H](N2CCC3(CC2)C(=O)N(CCCCCCCCCNCCNCCNCCNCCN)CN3c2ccccc2)CC1` (relative stereo), the “CNS motility*” value (mice) was 300 nmol/kg, the “dose with statistical significant decrease in locomotor activity during the first 30 minutes” value (mice; foreign cage, p<0.05) was 1000 nmol/kg and the “F % (oral bioavailability)” value [1] was <1%. For the same compound, the “T½ min (half-life)” value [1] was 225 min, the “Lovest Dose at which increased diuresis is achieved nMol/kg. I.e. >1.5 IV” value (Male SD/TAC rats) was 100 nmol/kg and the “PO Dose” value (Male SD/TAC rats) was 300 nmol/kg. The “Lovest Dose at which increased diuresis is achieved nMol/kg. I.e. >1.5 PO” value (Male SD/TAC rats) was 300 nmol/kg, the PO max effect. (Male SD/TAC rats) was 1.8 and the “SC Dose” value (Male SD/TAC rats) was 300 nmol/kg. The “Lovest Dose at which increased diuresis is achieved nMol/kg. I.e. >1.5 SC” value (Male SD/TAC rats) was 30 nmol/kg, the SC max effect. (Male SD/TAC rats) was 3.3 and the “agonism in efficacy assay” value (cloned hORL1 receptors) was “full agonism”. For the same compound, the “CNS grid shock*” value (male NMRI mice; i.v.) was 100 nmol/kg, the “dose at which the mice died after injection” value (from here on “dose at which the mice died”) (male NMRI mice; i.v.) was 2000 mmol/kg and the “observed effect after i.v. administration” value (shortened to “observed effect”) (male NMRI mice) was “analgesia”.

For `CC(C)[C@H]1CC[C@@H](N2CCC3(CC2)C(=O)N(CCCCCCCCCN(C)C)CN3c2ccccc2)CC1` (relative stereo), the “CNS motility*” value (mice) was 3000 nmol/kg, the “dose with statistical significant decrease in locomotor activity during the first 30 minutes” value (mice; foreign cage, p<0.05) was 10000 nmol/kg and the “Lovest Dose at which increased diuresis is achieved nMol/kg. I.e. >1.5 IV” value (Male SD/TAC rats) was 1 nmol/kg. The “Lovest Dose at which increased diuresis is achieved nMol/kg. I.e. >1.5 PO” value (Male SD/TAC rats) was 100 nmol/kg, the PO max effect. (Male SD/TAC rats) was 2.3 and the “CNS grid shock*” value (male NMRI mice; i.v.) was 3000 nmol/kg. The “dose at which the mice died” value (male NMRI mice; i.v.) was 0.03 mmol/kg and the “observed effect” value (male NMRI mice) was “analgesia”.

With `CC(C)[C@H]1CC[C@@H](N2CCC3(CC2)C(=O)N(CCCCCCCCCN2CCCNCCNCCCNCC2)CN3c2ccccc2)CC1` (relative stereo) the “CNS motility*” value (mice) was <1000 nmol/kg, the “effect on diuresis (in words)” value (Male SD/TAC rats) was “significantly increase diuresis” and the “Lovest Dose at which increased diuresis is achieved nMol/kg. I.e. >1.5 IV” value (Male SD/TAC rats) was 100 nmol/kg. For the same compound, the “SC Dose” value (Male SD/TAC rats) was 1000 nmol/kg, the “Lovest Dose at which increased diuresis is achieved nMol/kg. I.e. >1.5 SC” value (Male SD/TAC rats) was 100 nmol/kg and the SC max effect. (Male SD/TAC rats) was 3.3. For the same compound, the “CNS grid shock*” value (male NMRI mice; i.v.) was 3000 nmol/kg, the “dose at which the mice died” value (male NMRI mice; i.v.) was 0.01 mmol/kg and the “observed effect” value (male NMRI mice) was “analgesia”.

In the case of `CC(C)[C@H]1CC[C@@H](N2CCC3(CC2)C(=O)N(CCCCCCN(C)C)CN3c2ccccc2)CC1` (relative stereo), the “agonism in efficacy assay” value (cloned hORL1 receptors) was “full agonism”.

In the case of “cis-3-(13-Aminoethyl-10,13,16-triazahexadecan)-8-(4-isopropyl-cyclohexyl)-1-phenyl-1,3,8-triaza-spiro[4.5]decan-4-one”, the “SC Dose” value (Male SD/TAC rats) was 100 nmol/kg, the “Lovest Dose at which increased diuresis is achieved nMol/kg. I.e. >1.5 SC” value (Male SD/TAC rats) was 10 nmol/kg and the SC max effect. (Male SD/TAC rats) was 4.4. For the same compound, the “agonism in efficacy assay” value (cloned hORL1 receptors) was “full agonism”.

With “cis-3-N-(6-Methylaminohexyl)-(6-methylaminohexyl)-8-(4-isopropyl-cyclohexyl)-1-phenyl-1,3,8-triaza-spiro[4.5]decan-4-one” the “SC Dose” value (Male SD/TAC rats) was 100 nmol/kg, the “Lovest Dose at which increased diuresis is achieved nMol/kg. I.e. >1.5 SC” value (Male SD/TAC rats) was 100 nmol/kg and the SC max effect. (Male SD/TAC rats) was 2.5. The “agonism in efficacy assay” value (cloned hORL1 receptors) was “full agonism”.

With “trans-3-(13-Aminoethyl-10,13,16-triazahexadecan)-8-(4-isopropyl-cyclohexyl)-1-phenyl-1,3,8-triaza-spiro[4.5]decan-4-one” the “SC Dose” value (Male SD/TAC rats) was 100 nmol/kg, the “Lovest Dose at which increased diuresis is achieved nMol/kg. I.e. >1.5 SC” value (Male SD/TAC rats) was 100 nmol/kg and the SC max effect. (Male SD/TAC rats) was 2.5. For the same compound, the “agonism in efficacy assay” value (cloned hORL1 receptors) was “full agonism”.

For “cis-3-(7-Aminoethyl-4,7,10-triazadecan)-8-(4-isopropyl-cyclohexyl)-1-phenyl-1,3,8-triaza-spiro[4.5]decan-4-one”, the “CNS motility*” value (mice) was <300 nmol/kg, the “F % (oral bioavailability)” value [1] was <1% and the “T½ min (half-life)” value [1] was 45 min. For the same compound, the “oral availability (in words)” value [1] was “orally available”, the “effect on diuresis (in words)” value (Male SD/TAC rats) was “significantly increase diuresis” and the “Lovest Dose at which increased diuresis is achieved nMol/kg. I.e. >1.5 IV” value (Male SD/TAC rats) was 10 nmol/kg. The “PO Dose” value (Male SD/TAC rats) was 3000 nmol/kg, the “Lovest Dose at which increased diuresis is achieved nMol/kg. I.e. >1.5 PO” value (Male SD/TAC rats) was 1000 nmol/kg and the PO max effect. (Male SD/TAC rats) was 1.9. For the same compound, the “SC Dose” value (Male SD/TAC rats) was 1000 nmol/kg, the “Lovest Dose at which increased diuresis is achieved nMol/kg. I.e. >1.5 SC” value (Male SD/TAC rats) was 10 nmol/kg and the SC max effect. (Male SD/TAC rats) was 4.8. The “agonism in efficacy assay” value (cloned hORL1 receptors) was “full agonism”, the “CNS grid shock*” value (male NMRI mice; i.v.) was <100 nmol/kg and the “dose at which the mice died” value (male NMRI mice; i.v.) was 2000 mmol/kg. The “time to death after injection” value (male NMRI mice; i.v., at the lethal dose stated for the compound) was “approximately 1 minutes”, the “dose at which statistical significant analgesia was observed at 15 and 30 minutes” value (male NMRI mice; i.v., gridshock, at 15 and 30 minutes) was 1000 nmol/kg and the “observed effect” value (male NMRI mice) was “analgesia”.

With `CC(C)[C@H]1CC[C@@H](N2CCC3(CC2)C(=O)N(CCCCCCN)CN3c2ccccc2)CC1` (relative stereo) the “agonism in efficacy assay” value (cloned hORL1 receptors) was “full agonism”.

Source: patent US20080287478A1 (priority 2003, published 2008)
